Consider six molecules from PubChem BioAssay (EPA / NIEHS).

Protein sequences, listed by entry. Tags and fused reporters are not part of them. Lines headed by an entry give the natural chain unless they say otherwise; changes in a name come on top.
UniProt P03372, whole entry, looked up: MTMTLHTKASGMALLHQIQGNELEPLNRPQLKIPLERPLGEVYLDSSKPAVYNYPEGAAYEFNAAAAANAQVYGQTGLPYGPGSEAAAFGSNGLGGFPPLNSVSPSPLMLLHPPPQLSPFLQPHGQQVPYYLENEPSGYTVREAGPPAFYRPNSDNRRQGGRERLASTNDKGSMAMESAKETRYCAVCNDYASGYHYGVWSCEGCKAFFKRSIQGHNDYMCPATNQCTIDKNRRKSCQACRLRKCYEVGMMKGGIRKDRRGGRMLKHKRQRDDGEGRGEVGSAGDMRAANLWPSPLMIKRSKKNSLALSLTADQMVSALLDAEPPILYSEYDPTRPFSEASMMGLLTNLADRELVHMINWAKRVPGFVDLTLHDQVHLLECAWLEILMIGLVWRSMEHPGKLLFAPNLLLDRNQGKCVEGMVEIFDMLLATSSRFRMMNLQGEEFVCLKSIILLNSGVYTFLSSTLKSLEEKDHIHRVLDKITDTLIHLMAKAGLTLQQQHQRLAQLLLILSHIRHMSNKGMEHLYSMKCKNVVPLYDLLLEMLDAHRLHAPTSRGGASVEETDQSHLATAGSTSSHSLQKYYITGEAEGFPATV
UniProt Q92731, whole entry, looked up: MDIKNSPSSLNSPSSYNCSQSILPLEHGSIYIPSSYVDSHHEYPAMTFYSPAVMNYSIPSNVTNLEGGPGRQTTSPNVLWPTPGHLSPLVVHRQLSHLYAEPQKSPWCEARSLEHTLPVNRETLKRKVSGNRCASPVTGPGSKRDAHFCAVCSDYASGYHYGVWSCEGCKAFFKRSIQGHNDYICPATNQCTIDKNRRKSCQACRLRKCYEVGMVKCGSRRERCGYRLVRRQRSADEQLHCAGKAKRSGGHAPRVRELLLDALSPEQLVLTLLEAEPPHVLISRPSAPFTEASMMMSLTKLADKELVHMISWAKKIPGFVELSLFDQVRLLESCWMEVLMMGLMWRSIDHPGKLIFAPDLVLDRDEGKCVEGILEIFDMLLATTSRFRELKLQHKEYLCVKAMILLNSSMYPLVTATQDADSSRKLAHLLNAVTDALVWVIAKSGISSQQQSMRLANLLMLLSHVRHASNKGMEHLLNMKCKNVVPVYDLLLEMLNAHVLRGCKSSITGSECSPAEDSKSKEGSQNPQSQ
UniProt P04150: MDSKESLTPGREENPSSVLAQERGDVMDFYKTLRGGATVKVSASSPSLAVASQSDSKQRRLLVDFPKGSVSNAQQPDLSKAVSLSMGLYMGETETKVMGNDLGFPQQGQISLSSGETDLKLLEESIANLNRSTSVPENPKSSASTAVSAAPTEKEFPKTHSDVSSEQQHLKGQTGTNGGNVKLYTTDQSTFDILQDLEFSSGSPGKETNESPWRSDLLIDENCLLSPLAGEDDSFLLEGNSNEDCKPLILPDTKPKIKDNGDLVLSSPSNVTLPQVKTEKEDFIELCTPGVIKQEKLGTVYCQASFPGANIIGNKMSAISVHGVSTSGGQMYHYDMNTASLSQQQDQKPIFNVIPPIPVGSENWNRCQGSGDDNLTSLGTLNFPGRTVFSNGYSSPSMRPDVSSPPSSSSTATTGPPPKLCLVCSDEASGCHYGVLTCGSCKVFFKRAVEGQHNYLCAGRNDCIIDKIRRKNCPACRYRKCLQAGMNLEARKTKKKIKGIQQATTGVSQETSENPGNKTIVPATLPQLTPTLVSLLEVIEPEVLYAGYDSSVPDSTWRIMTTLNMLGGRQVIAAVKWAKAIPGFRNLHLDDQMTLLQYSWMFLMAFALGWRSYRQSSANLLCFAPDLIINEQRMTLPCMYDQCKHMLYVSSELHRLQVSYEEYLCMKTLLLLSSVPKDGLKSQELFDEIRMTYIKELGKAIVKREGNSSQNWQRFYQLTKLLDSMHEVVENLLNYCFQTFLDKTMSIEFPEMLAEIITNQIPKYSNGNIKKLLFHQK
UniProt P10275: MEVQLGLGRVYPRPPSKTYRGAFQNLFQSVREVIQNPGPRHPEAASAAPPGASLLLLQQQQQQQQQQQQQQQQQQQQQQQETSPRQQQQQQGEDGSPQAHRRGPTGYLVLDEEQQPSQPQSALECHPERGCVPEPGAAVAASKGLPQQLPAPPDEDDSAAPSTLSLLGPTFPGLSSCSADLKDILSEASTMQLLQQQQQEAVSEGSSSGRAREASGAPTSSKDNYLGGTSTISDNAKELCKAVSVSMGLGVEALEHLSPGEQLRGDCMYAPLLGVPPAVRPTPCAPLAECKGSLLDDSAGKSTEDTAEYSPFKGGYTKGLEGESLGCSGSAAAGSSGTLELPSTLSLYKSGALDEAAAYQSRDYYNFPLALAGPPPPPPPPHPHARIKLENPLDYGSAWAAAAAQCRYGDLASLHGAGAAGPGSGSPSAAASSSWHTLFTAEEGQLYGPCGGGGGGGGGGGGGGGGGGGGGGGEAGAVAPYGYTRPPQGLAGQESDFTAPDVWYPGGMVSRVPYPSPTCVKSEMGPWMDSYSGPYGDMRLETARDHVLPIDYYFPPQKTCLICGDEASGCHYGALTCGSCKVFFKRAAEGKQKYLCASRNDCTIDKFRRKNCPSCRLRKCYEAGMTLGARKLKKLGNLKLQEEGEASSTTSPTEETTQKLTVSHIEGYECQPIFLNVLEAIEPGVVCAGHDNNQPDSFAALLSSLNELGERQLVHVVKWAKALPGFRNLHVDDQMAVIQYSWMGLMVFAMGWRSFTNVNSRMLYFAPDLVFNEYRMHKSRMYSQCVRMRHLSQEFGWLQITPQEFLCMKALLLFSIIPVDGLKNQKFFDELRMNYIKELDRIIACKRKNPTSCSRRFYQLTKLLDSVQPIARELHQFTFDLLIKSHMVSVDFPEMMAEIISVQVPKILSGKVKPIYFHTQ
UniProt P06401: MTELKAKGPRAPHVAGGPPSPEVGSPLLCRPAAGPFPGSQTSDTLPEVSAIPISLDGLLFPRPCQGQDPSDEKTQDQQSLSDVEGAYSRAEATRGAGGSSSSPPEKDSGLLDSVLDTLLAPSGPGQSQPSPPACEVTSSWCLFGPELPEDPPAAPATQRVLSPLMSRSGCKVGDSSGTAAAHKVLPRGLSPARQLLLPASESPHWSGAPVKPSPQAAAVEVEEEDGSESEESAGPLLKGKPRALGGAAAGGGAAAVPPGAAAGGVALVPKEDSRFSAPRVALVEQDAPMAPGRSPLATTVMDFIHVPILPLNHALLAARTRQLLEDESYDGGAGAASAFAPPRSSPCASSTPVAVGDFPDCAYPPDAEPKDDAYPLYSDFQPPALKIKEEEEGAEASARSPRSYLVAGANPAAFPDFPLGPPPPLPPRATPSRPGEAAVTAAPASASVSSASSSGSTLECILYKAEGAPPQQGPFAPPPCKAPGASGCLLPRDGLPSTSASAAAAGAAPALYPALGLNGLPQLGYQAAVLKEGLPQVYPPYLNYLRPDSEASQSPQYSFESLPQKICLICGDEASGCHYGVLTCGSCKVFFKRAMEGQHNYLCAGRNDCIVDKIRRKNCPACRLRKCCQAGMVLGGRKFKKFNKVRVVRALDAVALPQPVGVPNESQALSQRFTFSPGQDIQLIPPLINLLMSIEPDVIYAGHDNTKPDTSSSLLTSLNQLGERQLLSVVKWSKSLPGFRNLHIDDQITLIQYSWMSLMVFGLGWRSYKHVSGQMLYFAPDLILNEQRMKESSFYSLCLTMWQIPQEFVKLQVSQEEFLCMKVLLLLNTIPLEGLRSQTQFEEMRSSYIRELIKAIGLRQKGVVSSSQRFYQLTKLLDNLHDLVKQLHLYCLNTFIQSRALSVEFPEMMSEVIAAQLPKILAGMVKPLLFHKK
UniProt P10827: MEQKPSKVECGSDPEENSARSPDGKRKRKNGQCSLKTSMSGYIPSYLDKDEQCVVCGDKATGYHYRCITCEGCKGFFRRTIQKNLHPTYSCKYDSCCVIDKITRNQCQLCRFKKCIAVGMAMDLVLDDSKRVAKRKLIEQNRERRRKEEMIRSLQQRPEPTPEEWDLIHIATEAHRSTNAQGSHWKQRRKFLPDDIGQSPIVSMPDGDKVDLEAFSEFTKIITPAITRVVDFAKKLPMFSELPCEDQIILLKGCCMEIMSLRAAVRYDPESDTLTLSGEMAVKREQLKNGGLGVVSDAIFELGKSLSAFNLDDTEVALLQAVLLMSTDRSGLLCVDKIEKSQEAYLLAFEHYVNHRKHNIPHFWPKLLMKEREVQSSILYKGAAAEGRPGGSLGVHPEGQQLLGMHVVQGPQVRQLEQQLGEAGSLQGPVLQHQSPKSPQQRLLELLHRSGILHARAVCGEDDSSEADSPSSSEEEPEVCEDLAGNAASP
UniProt O75469: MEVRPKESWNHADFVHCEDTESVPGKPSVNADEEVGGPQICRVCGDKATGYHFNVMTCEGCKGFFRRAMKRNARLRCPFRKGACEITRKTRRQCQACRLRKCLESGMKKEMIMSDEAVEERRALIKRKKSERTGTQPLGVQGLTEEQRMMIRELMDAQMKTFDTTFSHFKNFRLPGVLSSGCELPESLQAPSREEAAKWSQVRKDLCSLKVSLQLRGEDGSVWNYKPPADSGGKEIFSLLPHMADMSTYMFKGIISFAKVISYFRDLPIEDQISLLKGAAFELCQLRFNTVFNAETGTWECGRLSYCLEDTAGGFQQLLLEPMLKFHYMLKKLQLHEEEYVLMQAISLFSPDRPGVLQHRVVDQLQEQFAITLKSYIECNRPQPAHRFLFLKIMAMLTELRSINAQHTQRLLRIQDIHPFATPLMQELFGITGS

SMILES strings stand for the structures. “And” between values parts separate entries of the source, which are not always exact repeats. Equal entries are not always repeated. The entries are a selection whose mix differs from that of the whole data set. Inconclusive results are not listed. Some compounds were tested as several samples or in several runs, with calls that do not always agree. The source made the active and inactive calls. The calls were made as follows: active = hit-call score of the fitted dose curve at least 0.9, where 1 is the maximum; inconclusive = response in the unintended direction; inactive = score below 0.9.

Experiment [1] concerns the target Estrogen receptor (Homo sapiens) + Estrogen receptor beta (Homo sapiens) (UniProt P03372+Q92731). The experiment is described as follows: OT_ER_ERaERb_0480: Odyssey Thera (OT) 8-hour HEK293T Protein-Complementation Assay for Estrogen Receptor-alpha/-beta Heterodimer (AID 2283352). The method in brief: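 Human HEK293T cells were treated for 8 hours and receptor heterodimerisation was detected through reconstitution of a fluorescent reporter split between ER-alpha and ER-beta ligand-binding domains. Activity was analysed as gain of signal against DMSO.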

For experiment [2], the target named is Glucocorticoid receptor (Homo sapiens) (UniProt P04150). Briefly: NVS_NR_hGR: NovaScreen (NVS) Nuclear Receptor Binding Assay for human Glucocorticoid Receptor (GR) (AID 2283363).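 As to AC50: activity is loss of specific radioligand binding signal relative to DMSO.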 The method in brief:
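Cell-free radioligand binding with extracted receptor protein, read by filter-based scintillation counting 16 hours after dosing. Loss of specific signal versus DMSO baseline was scored. Primary screen ran in duplicate at 25 uM; actives were followed up in concentration series.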

Experiment [3] addresses Androgen Receptor/SRC-1 Co-activator, AR (gene 367) (UniProt P10275). Briefly: OT_AR_ARSRC1_0480: Odyssey Thera (OT) 8-hour HEK293T Protein-Complementation Assay for Androgen Receptor/SRC-1 Co-activator (AID 2283354).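 Also: hits raise the complementation signal above DMSO so AC50 marks enhancers.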 The gist of the method:
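HEK293T cells stably expressing AR and SRC-1 fused to split Venus YFP fragments via (Gly4Ser)2 linkers were read 8 h after compound dosing. Complementation was imaged at 488 and 635nm, and nuclear/cytoplasmic fluorescence ratio (488nm) was taken over ≥400 cells; gain-of-signal versus DMSO.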

The target of a further experiment is PGR (gene 5241) (UniProt P06401). The experiment is described as follows: NVS_NR_hPR: NovaScreen (NVS) Nuclear Receptor Binding Assay for human Progestron Receptor (PR) (AID 2283360).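 Also: active means loss of bound radioligand signal versus DMSO baseline.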 The gist of the method: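 T47D-derived receptor preparation, cell-free, with tritiated or iodinated radioligand displacement measured by scintillation 18 h post-dosing. Single 25 uM duplicate screen, then concentration series; signal loss relative to DMSO.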

In experiment [4] the target is human Thyroid Receptor Alpha (TRa), THRA (gene 7067) (UniProt P10827). The experiment is described as follows: NVS_NR_hTRa_Antagonist: NovaScreen (NVS) Nuclear Receptor Binding Assay for human Thyroid Receptor Alpha Antagonism (TRa) (AID 2283362).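 Also: activity is loss of signal relative to DMSO baseline.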 The method in brief: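 In this biochemical format, receptor protein is dosed with chemical and read after 1 hour via AlphaLISA. Decreases from the DMSO baseline indicate antagonist activity; screening used 25 uM in duplicate before concentration-response confirmation.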

In experiment [5] the target is Nuclear receptor subfamily 1 group I member 2 (Homo sapiens) (UniProt O75469). Briefly: NVS_NR_hPXR: NovaScreen (NVS) Nuclear Receptor Binding Assay for human Pregnane X Receptor (PXR) (AID 2283365).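 Also: a drop in FRET signal versus DMSO baseline means the compound binds.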 The gist of the method: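 Read-out: TR-FRET, human PXR, 2 h post-dosing, cell-free. Loss of signal vs DMSO taken as binding activity; 25 uM primary, concentration series secondary.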

Regarding `CC(C)CCCCCCCOP(OCCCCCCCC(C)C)Oc1ccccc1`, the outcome in experiment [1] was inactive.
`CN(C(=O)Cc1cccc2occc12)[C@H]1CC[C@@]2(CCCO2)C[C@@H]1N1CCCC1`: the outcome in experiment [1] and in experiment [2] was inactive.
In the case of `Cc1cc([N+](=O)[O-])cc([N+](=O)[O-])c1O`, the molecule was classed as inactive in experiment [3].
The same measure, in the same setting: the value for `O=[P+](Oc1ccccc1)Oc1ccccc1` was “inactive”.
Take `CC(C)OP(=S)(OC(C)C)SCCNS(=O)(=O)c1ccccc1`: the AC50 with PGR (gene 5241) is active: 2610 nM; in experiment [2], active: 1.79 µM and active: 2.33 µM and active: 2.63 µM; in experiment [5] it was active: 2520 nM. The molecule was called inactive (with PGR (gene 5241); in experiment [4]).
Consider `ClP(Cl)c1ccccc1`, for which the molecule was classed as inactive in experiment [5].

As a reminder, the AC50 is the concentration giving half of the maximal activity seen.
